# Measurements from US6159704.
# Several values for one entry are separate records, joined by “and”; a condition that tells them apart may be missing. Equal entries are not always repeated.
# What was measured:
# [1] = molecular target: PP2Ac of COS-1 cells (endogenous PP2A catalytic subunit / PP2A activity); assay: 12CA5 immunoprecipitation from transfected COS-1 cells, PP2A activity on 32P-LRRASVA
# [2] = molecular target: PP2Ac of COS-1 cells (endogenous PP2A catalytic subunit / PP2A activity); assay: 12CA5 immunoprecipitation from transfected COS-1 cells, PP2A activity in the precipitate
substance,measurement,setting,value
HA-tagged human eRF1 expressed in COS-1 cells (from UniProt P62495),% immunoprecipitated (of PP2A activity),[1],0.39%
same,PP2A activity in immunoprecipitates (mU),[1],1.9 mU
same,% of the total cytoplasmic PP2A activity brought down,[2],1% and 0.4% to 1.6% (2×)
